In PubChem BioAssay (NCI):
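The compound was tested at five concentrations on cells cultured in 96-well plates, with a 48-hour exposure period. Definition used: TGI = concentration required for complete inhibition of growth.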

Experiments:
Experiment in all cases: growth of human tumour cells (NCI), 48 h
UACC-257 melanoma = test system: UACC-257 melanoma
SK-MEL-5 melanoma = test system: SK-MEL-5 melanoma
TK-10 renal = test system: TK-10 renal
OVCAR-8 ovarian = test system: OVCAR-8 ovarian
ACHN renal = test system: ACHN renal
SF-295 CNS = test system: SF-295 CNS
MALME-3M melanoma = test system: MALME-3M melanoma
HCT-116 colon = test system: HCT-116 colon
SK-MEL-28 melanoma = test system: SK-MEL-28 melanoma
A498 renal = test system: A498 renal
SK-MEL-2 melanoma = test system: SK-MEL-2 melanoma
MDA-MB-435 = test system: MDA-MB-435
HCT-15 colon = test system: HCT-15 colon
LOX IMVI melanoma = test system: LOX IMVI melanoma
NCI-H23 lung = test system: NCI-H23 lung
COLO 205 colon = test system: COLO 205 colon
PC-3 prostate = test system: PC-3 prostate
HT29 colon = test system: HT29 colon
K-562 leukemia = test system: K-562 leukemia
NCI-H226 lung = test system: NCI-H226 lung
OVCAR-4 ovarian = test system: OVCAR-4 ovarian
MCF7 breast = test system: MCF7 breast
EKVX NSCLC = test system: EKVX NSCLC
IGROV1 ovarian = test system: IGROV1 ovarian
M14 melanoma = test system: M14 melanoma
SF-539 CNS = test system: SF-539 CNS
NCI/ADR-RES ovarian = test system: NCI/ADR-RES ovarian
BT-549 breast = test system: BT-549 breast
HOP-62 NSCLC = test system: HOP-62 NSCLC
OVCAR-5 ovarian = test system: OVCAR-5 ovarian
HS 578T breast = test system: HS 578T breast
SR leukemia = test system: SR leukemia
CAKI-1 renal = test system: CAKI-1 renal
DU-145 prostate = test system: DU-145 prostate
MOLT-4 leukemia = test system: MOLT-4 leukemia
U251 CNS = test system: U251 CNS
SN12C renal = test system: SN12C renal
UO-31 renal = test system: UO-31 renal
NCI-H522 lung = test system: NCI-H522 lung
SF-268 CNS = test system: SF-268 CNS
SNB-19 CNS = test system: SNB-19 CNS
OVCAR-3 ovarian = test system: OVCAR-3 ovarian
KM12 colon = test system: KM12 colon
MDA-MB-231 breast = test system: MDA-MB-231 breast
CCRF-CEM leukemia = test system: CCRF-CEM leukemia
UACC-62 melanoma = test system: UACC-62 melanoma
RPMI-8226 leukemia = test system: RPMI-8226 leukemia
T-47D breast = test system: T-47D breast
HL-60(TB) leukemia = test system: HL-60(TB) leukemia
SW-620 colon = test system: SW-620 colon
786-0 renal = test system: 786-0 renal
SK-OV-3 ovarian = test system: SK-OV-3 ovarian
A549 NSCLC = test system: A549 NSCLC

## CN(C(=O)Cc1ccc(Cl)c(Cl)c1)[C@H]1CCCC[C@@H]1N1CC=CC1
UACC-257 melanoma
  TGI: 35.1 µM
SK-MEL-5 melanoma
  TGI: 39.2 µM
TK-10 renal
  TGI: > 100 µM
OVCAR-8 ovarian
  TGI: > 100 µM
ACHN renal
  TGI: > 100 µM
SF-295 CNS
  TGI: 74 µM
MALME-3M melanoma
  TGI: 45.1 µM
HCT-116 colon
  TGI: > 100 µM
SK-MEL-28 melanoma
  TGI: 82.9 µM
A498 renal
  TGI: > 100 µM
SK-MEL-2 melanoma
  TGI: > 100 µM
MDA-MB-435
  TGI: > 100 µM
HCT-15 colon
  TGI: > 100 µM
LOX IMVI melanoma
  TGI: > 100 µM
NCI-H23 lung
  TGI: > 100 µM
COLO 205 colon
  TGI: 87.4 µM
PC-3 prostate
  TGI: > 100 µM
HT29 colon
  TGI: > 100 µM
K-562 leukemia
  TGI: > 100 µM
NCI-H226 lung
  TGI: > 100 µM
OVCAR-4 ovarian
  TGI: > 100 µM
MCF7 breast
  TGI: > 100 µM
EKVX NSCLC
  TGI: > 100 µM
IGROV1 ovarian
  TGI: > 100 µM
M14 melanoma
  TGI: > 100 µM
SF-539 CNS
  TGI: > 100 µM
NCI/ADR-RES ovarian
  TGI: > 100 µM
BT-549 breast
  TGI: > 100 µM
HOP-62 NSCLC
  TGI: > 100 µM
OVCAR-5 ovarian
  TGI: > 100 µM
HS 578T breast
  TGI: > 100 µM
SR leukemia
  TGI: > 100 µM
CAKI-1 renal
  TGI: > 100 µM
DU-145 prostate
  TGI: > 100 µM
MOLT-4 leukemia
  TGI: > 100 µM
U251 CNS
  TGI: > 100 µM
SN12C renal
  TGI: > 100 µM
UO-31 renal
  TGI: > 100 µM
NCI-H522 lung
  TGI: > 100 µM
SF-268 CNS
  TGI: > 100 µM
SNB-19 CNS
  TGI: > 100 µM
OVCAR-3 ovarian
  TGI: > 100 µM
KM12 colon
  TGI: > 100 µM
MDA-MB-231 breast
  TGI: > 100 µM
CCRF-CEM leukemia
  TGI: > 100 µM
UACC-62 melanoma
  TGI: 98.4 µM
RPMI-8226 leukemia
  TGI: > 100 µM
T-47D breast
  TGI: > 100 µM
HL-60(TB) leukemia
  TGI: > 100 µM
SW-620 colon
  TGI: > 100 µM
786-0 renal
  TGI: > 100 µM
SK-OV-3 ovarian
  TGI: > 100 µM
A549 NSCLC
  TGI: > 100 µM
